Patent US6337206B1 (priority 1997, dated 2002)

Target: T1, human GALR2 (Homo sapiens, UniProt O43603)
T1 construct: expressed in transfected cells; host or cells: 293-AEQ17 (aequorin-expressing 293 line)
T1 sequence (O43603 1-387): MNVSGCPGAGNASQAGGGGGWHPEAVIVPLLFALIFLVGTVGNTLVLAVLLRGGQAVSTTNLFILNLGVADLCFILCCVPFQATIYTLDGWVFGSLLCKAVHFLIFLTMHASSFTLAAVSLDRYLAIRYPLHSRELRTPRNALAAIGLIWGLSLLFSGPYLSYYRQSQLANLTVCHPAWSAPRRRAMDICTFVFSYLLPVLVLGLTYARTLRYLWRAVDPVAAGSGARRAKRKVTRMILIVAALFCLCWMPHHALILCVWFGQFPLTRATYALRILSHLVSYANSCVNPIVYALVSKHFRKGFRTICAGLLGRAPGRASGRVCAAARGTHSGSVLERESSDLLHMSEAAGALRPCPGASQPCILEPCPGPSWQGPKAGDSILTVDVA
Assay: Aequorin bioluminescence assay in 293-AEQ17 cells, human GALR2
Assay type: cell-based
Conditions: read-out: EC50, aequorin bioluminescence; human GALR2 in 293-AEQ17 cells

Substance: human Galanin
- EC50: 32 nM
